Source: PubChem BioAssay AID504651 (National Center for Advancing Translational Sciences (NCATS), 2011)
Only a part is listed here, and it is no random draw. Calls of active or inactive are those of the source. Cut-off read from the data, not from the text of the source: active = potentiation above about 30%; inactive = the rest.

Amino acid sequences for entries named in this document (tags omitted).
UniProt P21728, whole entry: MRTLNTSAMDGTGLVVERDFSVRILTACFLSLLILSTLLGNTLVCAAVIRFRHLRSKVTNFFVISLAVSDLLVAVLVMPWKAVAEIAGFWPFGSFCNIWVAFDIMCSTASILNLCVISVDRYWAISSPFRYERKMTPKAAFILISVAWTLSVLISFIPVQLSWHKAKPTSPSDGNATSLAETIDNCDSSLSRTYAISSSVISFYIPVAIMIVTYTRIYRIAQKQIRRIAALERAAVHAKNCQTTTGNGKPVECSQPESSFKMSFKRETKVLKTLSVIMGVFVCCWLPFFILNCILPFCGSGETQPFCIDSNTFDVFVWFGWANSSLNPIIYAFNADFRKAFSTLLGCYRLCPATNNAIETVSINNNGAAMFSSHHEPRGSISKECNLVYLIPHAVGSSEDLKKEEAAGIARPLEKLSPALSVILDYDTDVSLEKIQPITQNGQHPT

Each compound was assayed against D(1A) dopamine receptor (Homo sapiens) (UniProt P21728) (assay: Potentiators of Human D1 Dopamine Receptor: qHTS). Conditions: HEK293 TREx D1 cells, calcium flux, dopamine EC20 potentiation; at 10 µM; stronger effect = higher value.
Source text: Dopamine receptors (DARs) are involved in the etiology and/or therapy of a number of neuropsychiatric and endocrine disorders. For instance, all receptor-based antiparkinsonian drugs work via stimulating the D1 DAR subtype whereas all FDA-approved antipsychotic agents are antagonists of this receptor. […] There are three different types of allosteric modulators that we are seeking, two of which will stimulate or augment receptor signaling, allosteric agonists and potentiators, while the third, allosteric antagonists, will attenuate receptor signaling. The present primary screening assay measures compound potentiation of an EC20 dopamine response by tracking calcium flux in a […], inducible Hek293 Trex D1 cell line.
NIH Chemical Genomics Center [NCGC]
NIH Molecular Libraries Probe Centers Network [MLPCN]
Assay Submitter (PI): David Sibley
Freshly passaged cells are plated in 1536 well black, clear bottom plates at a density of 4000 cells/well in 3 ul of complete media containing 1x tetracycline inducer. After an overnight incubation at 30 C in 5% CO2, cells are loaded with 2 ul of the no wash Calcium Assay Kit (ABD Bioquest) and incubated at room temperature for 30 to 90 minutes. A 10 cycle (1 second/cycle) baseline measurement is taken and then the FDSS online 1536 pintool delivers 23 nl of compound library (as well as dopamine controls) to the plate. The plate is measured for kinetically at 1 cycle/sec for 180 seconds and is considered to be the agonist portion of the assay (eg, compounds which activate a positive calcium response during this portion are flagged as potential agonists). Following the 180 second read, 1 ul of an EC20 of dopamine is delivered by an onboard pipette head. Measurements are taken kinetically for an additional 180 seconds.
Note: 0% is about no effect.

| Structure (SMILES) | potentiation |
| --- | --- |
| CCOC(=O)c1ccc(NP(C)(=O)Oc2ccc(Cl)cc2)cc1 (stereo not drawn) | inactive: -0.9% |
| CP(=O)(OC12CC3CC(CC(C3)C1)C2)OC12CC3CC(CC(C3)C1)C2 | inactive: 0% |
| O=C(OCCCN1CCCC1)C(O)(c1ccccc1)C1CCCCC1 (stereo not drawn) | inactive: 3.7% |
| COc1ccccc1OP(C)(=O)Nc1c(C)n(C)n(-c2ccccc2)c1=O (stereo not drawn) | inactive: -3.3% |
| CCc1ccc(OP(C)(=O)Nc2cccnc2)cc1 (stereo not drawn) | inactive: 1.76% |
| CP(=O)(Oc1ccccc1)N1CCOC1=O (stereo not drawn) | inactive: -4.9% |
| COc1ccc(OP(C)(=O)Nc2ccc(Br)cc2)cc1 (stereo not drawn) | inactive: -1.3% |
| CCN(CC)CC(O)COC(=O)C(O)(c1ccccc1)C1CCCCC1 (stereo not drawn) | inactive: -3.4% |
| CN(C)C(=O)c1c([N+](=O)[O-])cc([N+](=O)[O-])cc1[N+](=O)[O-] | inactive: -0.7% |
| CC(C)(C)c1ccc(OP(C)(=O)O)cc1 | inactive: 1.75% |
| COc1ccccc1OP(C)(=O)Nc1ccccc1Br (stereo not drawn) | inactive: -4.15% |
| CP(=O)(Nc1ccc(Cl)cc1)Oc1ccc(F)cc1 (stereo not drawn) | inactive: -5.55% |
| COc1ccc(OP(C)(=O)Nc2ccccn2)cc1 (stereo not drawn) | inactive: -4.05% |
| CN(C)CCOC(=O)C(O)(c1ccccc1)C1CCCC1 (stereo not drawn) | inactive: -4.35% |
| COc1ccccc1OP(C)(=O)Nc1ccc(Br)cc1 (stereo not drawn) | inactive: -4.4% |
| COc1ccccc1OP(C)(=O)Nc1ccc(C)cc1C (stereo not drawn) | inactive: -3.65% |
| CP(=O)(Nc1ccccn1)Oc1ccccc1 (stereo not drawn) | inactive: -0.2% |
| CCc1ccc(OP(C)(=O)O)cc1 | inactive: -1.05% |
| O=[N+]([O-])c1cc([N+](=O)[O-])c(Nc2ccccn2)c([N+](=O)[O-])c1 | inactive: -6.85% |
| Cc1c(NP(C)(=O)Oc2ccc(C(C)C)cc2)c(=O)n(-c2ccccc2)n1C (stereo not drawn) | inactive: -0.75% |

| Structure (SMILES) | potentiation |
| --- | --- |
| COc1ccccc1OP(C)(=O)Nc1ccc(C)c(C)c1 (stereo not drawn) | inactive: -0.05% |
| COc1ccc(OP(C)(=O)Nc2ccccc2Br)cc1 (stereo not drawn) | inactive: -6.75% |
| Cc1cc(C)cc(OP(C)(=O)Nc2cccc(C(F)(F)F)c2)c1 (stereo not drawn) | inactive: -2.95% |
| CP(=O)(OCCOc1ccccc1)OCCOc1ccccc1 | inactive: -7.44% |
| CP(=O)(Nc1ccc(Cl)cc1Cl)Oc1ccccc1 (stereo not drawn) | inactive: -1.85% |
| Cc1nc2ccc3ccccc3c2o1.O=[N+]([O-])c1cc([N+](=O)[O-])c(O)c([N+](=O)[O-])c1 | inactive: -0.718% |
| CCOC(=O)c1ccc(NP(C)(=O)Oc2ccc(F)cc2)cc1 (stereo not drawn) | inactive: -0.15% |
| COc1ccc(OP(C)(=O)Nc2ccc(SC(F)(F)F)cc2)cc1 (stereo not drawn) | inactive: -4.2% |
| CP(=O)(Nc1ccccc1)Oc1ccc(F)cc1 (stereo not drawn) | inactive: -0.15% |
| CCCCCOc1ccc(NP(C)(=O)Oc2ccc(Cl)cc2Cl)cc1 (stereo not drawn) | inactive: 17.1% |
| CCN(CC)CCCOC(=O)C(O)(c1ccccc1)C1CCCCC1 (stereo not drawn) | inactive: 1.55% |
| CP(=O)(Nc1ccccc1F)Oc1ccccc1 (stereo not drawn) | inactive: -1.45% |
| CC(C)c1ccc(OP(C)(=O)Nc2ccc(SC(F)(F)F)cc2)cc1 (stereo not drawn) | inactive: -13.7% |
| O=C(OCCN1CCN(CCOCc2ccccc2)CC1)C(O)(c1ccccc1)c1ccccc1 | inactive: -3.7% |
| CCOP(C)(=S)SCC(=O)NC(C)(CC)C(=O)O (stereo not drawn) | inactive: -6.5% |
| CP(=O)(Nc1ccc(SC(F)(F)F)cc1)Oc1ccc(F)cc1 (stereo not drawn) | inactive: -5.5% |
| Cc1ccccc1NP(C)(=O)Nc1ccccc1C | inactive: -3.6% |
| CP(=O)(Nc1ccc2c(c1)OCCO2)Oc1ccccc1 (stereo not drawn) | inactive: -1.9% |
| CN(C)CCOC(=O)C(O)(c1ccccc1)C1CCCCC1 (stereo not drawn) | inactive: -0.7% |
| COc1ccc(NP(C)(=O)Oc2ccccc2OC)cc1 (stereo not drawn) | inactive: -3.15% |

| Structure (SMILES) | potentiation |
| --- | --- |
| COc1ccc(OP(C)(=O)Nc2cccc(Br)c2)cc1 (stereo not drawn) | inactive: -3.41% |
| O=[N+]([O-])c1ccc(OP2(=O)COCCO2)cc1 (stereo not drawn) | inactive: -4.55% |
| Cc1cc(-c2cccc3ccccc23)c(C)cn1.O=[N+]([O-])c1cc([N+](=O)[O-])c(O)c([N+](=O)[O-])c1 | inactive: -1.8% |
| O=[N+]([O-])c1cc([N+](=O)[O-])c(Nc2nnnn2CCO)c([N+](=O)[O-])c1 | inactive: 1.7% |
| CC1=C2N=C(C=C3N=C(C(C)=C4[N-][C@@](C)([C@@H]5N=C1[C@](C)(CCC(=O)NC[C@@H](C)OP(=O)([O-])O[C@H]1[C@@H](O)[C@@H](n6cnc7cc(C)c(C)cc76)O[C@@H]1CO)[C@H]5CC(N)=O)[C@@](C)(CC(N)=O)[C@@H]4CCC(N)=O)[C@@](C)(CC(N)=O)[C@@H]3CCC(N)=O)C(C)(C)[C@@H]2CCC(N)=O.[C-]#N.[Co+3] | inactive: -1.05% |
| CP(=O)(Nc1ccc(SC(F)(F)F)cc1)Oc1ccccc1 (stereo not drawn) | inactive: -0.35% |
| CCCOc1ccc(NP(C)(=O)Oc2ccc(Cl)cc2)cc1 (stereo not drawn) | inactive: -4.6% |
| CN1CCCCC1COC(=O)C1(O)c2ccccc2CCc2ccccc21 (stereo not drawn) | inactive: -1.6% |
| COc1ccccc1OP(C)(=O)Nc1c(C)cccc1C (stereo not drawn) | inactive: 4.5% |
| O=[N+]([O-])c1cc([N+](=O)[O-])c(-n2nnc3ccccc32)c([N+](=O)[O-])c1 | inactive: -2.2% |
| Cc1nc2ccc3ccccc3c2s1.O=[N+]([O-])c1cc([N+](=O)[O-])c(O)c([N+](=O)[O-])c1 | inactive: -1.3% |
| CCOC(=O)c1ccc(NP(C)(=O)Oc2cc(C)cc(C)c2)cc1 (stereo not drawn) | inactive: -6.05% |
| Cc1cc(C)cc(OP(C)(=O)Nc2ccc(C)cc2C)c1 (stereo not drawn) | inactive: 3.65% |
| COc1ccccc1OP(C)(=O)Nc1cccc(Br)c1 (stereo not drawn) | inactive: -3.55% |
| Cc1ccc(C)c(NP(C)(=O)Oc2ccccc2)c1 (stereo not drawn) | inactive: -10% |
| CP(=O)(Nc1cccc(Br)c1)Oc1ccccc1 (stereo not drawn) | inactive: -2.2% |
| Cc1cc(C)cc(OP(C)(=O)Nc2ccccn2)c1 (stereo not drawn) | inactive: 1.45% |
| CC1=NCCc2c1[nH]c1ccccc21.O=[N+]([O-])c1cc([N+](=O)[O-])c(O)c([N+](=O)[O-])c1 | inactive: -0.85% |
